# In US20200399329A1, “ANTIMICROBIAL PEPTIDES” (priority 2015, published 2020):
# Experiments:
# Type in all cases: cell-based, Escherichia coli
# E. coli Sens. 25922 [1] = test system: E. coli Sens. 25922
# Procedure: (§1) In order to determine the MIC values of the peptides, growth and inhibition of various bacteria were monitored after treatment with the peptides of the invention (Table 6).
# (§2) E. coli bacteria were cultured with or without OMN6 in increasing concentrations of 0.8-200 μM and with or without Fetal Bovine Serum 10% for 17-20 hours. The growth of the bacteria was continuously monitored via spectrophotometry at 600 nm. As bacterial growth progresses, OD600 nm values rise, and where the growth is inhibited OD600 nm values remain constant.
# (§3) The experimental system and parameters described here were used to determine the MIC values of OMN2, OMN6, OMN7 and OMN11 on various bacteria strains (Table 7 and Table 8).
# E. coli CR BAA-2452 [2] = test system: E. coli CR BAA-2452
# Procedure: as §1, §2
# E. coli NDM1 is a Carbapenem resistant strain of bacteria. The experimental system described above was used to determine the antimicrobial effect of OMN6 on this bacteria compared to the antibiotic drug Imipenem (IPM), a member of the Carbapenem family of antibiotics. The MIC value for IPM on sensitive E. coli is 4 μg/ml, in a MIC above 8 μg/ml the bacteria is considered resistant.
# as §3
# E. coli CR BAA-2452 [3] = test system: E. coli CR BAA-2452; remark: listed apart in the source
# Procedure: (§4) In order to determine the Minimal Bactericidal Concentration (MBC) values of the peptides, colony formation of various bacteria strains was monitored and determined after treatment with the peptides of the invention. Multi-Drug Resistant A. baumannii bacteria were cultured with or without OMN6 in increasing concentrations, as is detailed in FIG. 6 and Example 6. Immediately afterwards, samples of each experimental group were diluted to 1×10^4 to 1×10^6 as necessary, and further, the samples were plated on appropriate medium-agar plates. All the plates were incubated at 37° C. for 24-48 hours. Colonies were counted and CFU/ml in the original sample, prior to plating, were calculated and determined. An example of the plates, after incubation, is presented in FIG. 7 where the plate on the left side of the image is the CTRL sample treated with DDW and in the right side of the image increasing concentrations of OMN6 are presented, as specified therein.
# (§5) The experimental system and parameters described here were used to determine the MBC values of OMN2, OMN6, OMN7 and OMN11 on various bacteria strains with and without the supplementation of 10% FBS (Table 6 and Table 8).
# E. coli Sens. 25922 [4] = test system: E. coli Sens. 25922; remark: listed apart in the source
# Procedure: as §4, §5
smiles,measurement,setting,value
CC[C@H](C)[C@H](NC(=O)CNC(=O)[C@H](CC(N)=O)NC(=O)[C@H](CCCNC(=N)N)NC(=O)[C@@H](NC(=O)[C@H](CC(N)=O)NC(=O)[C@H](CCCNC(=N)N)NC(=O)CNC(=O)[C@H](CCCCN)NC(=O)[C@H](CCSC)NC(=O)[C@H](CCC(=O)O)NC(=O)[C@@H](NC(=O)[C@H](CCCCN)NC(=O)[C@H](CCCCN)NC(=O)[C@H](Cc1ccccc1)NC(=O)[C@@H](NC(=O)[C@H](CCCCN)NC(=O)[C@H](Cc1c[nH]c2ccccc12)NC(=O)[C@H](CCCCN)NC(=O)[C@H](CS)NC(=O)[C@@H](N)CCSC)C(C)C)[C@@H](C)CC)[C@@H](C)CC)C(=O)N[C@H](C(=O)N[C@@H](CCCCN)C(=O)N[C@@H](C)C(=O)NCC(=O)N1CCC[C@H]1C(=O)N[C@@H](C)C(=O)N[C@H](C(=O)N[C@@H](C)C(=O)N[C@H](C(=O)N[C@@H](CC(C)C)C(=O)NCC(=O)N[C@@H](CCC(=O)O)C(=O)N[C@@H](C)C(=O)N[C@@H](CCCCN)C(=O)N[C@@H](C)C(=O)N[C@@H](CC(C)C)C(=O)N[C@@H](CS)C(N)=O)C(C)C)[C@@H](C)CC)C(C)C [OMN2],MIC,E. coli Sens. 25922 [1],25 µM
same,MIC,E. coli CR BAA-2452 [2],20 µM
same,MBC,E. coli CR BAA-2452 [3],20 µM
same,MBC,E. coli Sens. 25922 [4],25 µM
